# Target: JNK kinase (Homo sapiens, UniProt P45983)
# The chains behind the UniProt entries cited, without tags or fusion partners. Where a name states a change or a piece, a line headed by the entry shows the natural chain unless it says otherwise.
# UniProt P45983: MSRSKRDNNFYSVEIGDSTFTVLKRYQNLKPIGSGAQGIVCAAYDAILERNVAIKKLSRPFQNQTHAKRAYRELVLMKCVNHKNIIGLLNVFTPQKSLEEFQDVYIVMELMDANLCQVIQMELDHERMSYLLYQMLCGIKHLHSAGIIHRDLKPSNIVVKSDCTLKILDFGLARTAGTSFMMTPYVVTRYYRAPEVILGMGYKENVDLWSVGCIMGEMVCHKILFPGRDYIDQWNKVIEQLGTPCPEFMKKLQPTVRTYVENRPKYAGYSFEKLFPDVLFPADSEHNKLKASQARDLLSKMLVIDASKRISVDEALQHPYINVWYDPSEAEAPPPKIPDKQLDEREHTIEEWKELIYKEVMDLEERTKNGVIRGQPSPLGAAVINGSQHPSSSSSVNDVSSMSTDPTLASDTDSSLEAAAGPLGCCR
# Assay: Lantha Screen Kinase Activity Assay
# Type: biochemical
smiles,measurement,value
NC(=O)c1ccsc1NC(=O)Cc1ccc2c(c1)OCCO2,IC50,2700 nM

# — patent US20100240720A1, “ALLOSTERIC JNK INHIBITORS” (Burnham Institute for Medical Research, priority 2009, published 2010)
